The values below come from patent US12492193B2, “Pyrazole derivatives for the treatment of cystic fibrosis” (Fondazione Istituto Italiano Di Tecnologia, priority 2017, dated 2025).

The chains behind the UniProt entries cited, without tags or fusion partners. A line that says so, or that is headed by a name, gives the form on record, which may keep a tag or linker. Residues count along the entry.
UniProt P13569, 1-1480 with tags or gaps DEL508-508: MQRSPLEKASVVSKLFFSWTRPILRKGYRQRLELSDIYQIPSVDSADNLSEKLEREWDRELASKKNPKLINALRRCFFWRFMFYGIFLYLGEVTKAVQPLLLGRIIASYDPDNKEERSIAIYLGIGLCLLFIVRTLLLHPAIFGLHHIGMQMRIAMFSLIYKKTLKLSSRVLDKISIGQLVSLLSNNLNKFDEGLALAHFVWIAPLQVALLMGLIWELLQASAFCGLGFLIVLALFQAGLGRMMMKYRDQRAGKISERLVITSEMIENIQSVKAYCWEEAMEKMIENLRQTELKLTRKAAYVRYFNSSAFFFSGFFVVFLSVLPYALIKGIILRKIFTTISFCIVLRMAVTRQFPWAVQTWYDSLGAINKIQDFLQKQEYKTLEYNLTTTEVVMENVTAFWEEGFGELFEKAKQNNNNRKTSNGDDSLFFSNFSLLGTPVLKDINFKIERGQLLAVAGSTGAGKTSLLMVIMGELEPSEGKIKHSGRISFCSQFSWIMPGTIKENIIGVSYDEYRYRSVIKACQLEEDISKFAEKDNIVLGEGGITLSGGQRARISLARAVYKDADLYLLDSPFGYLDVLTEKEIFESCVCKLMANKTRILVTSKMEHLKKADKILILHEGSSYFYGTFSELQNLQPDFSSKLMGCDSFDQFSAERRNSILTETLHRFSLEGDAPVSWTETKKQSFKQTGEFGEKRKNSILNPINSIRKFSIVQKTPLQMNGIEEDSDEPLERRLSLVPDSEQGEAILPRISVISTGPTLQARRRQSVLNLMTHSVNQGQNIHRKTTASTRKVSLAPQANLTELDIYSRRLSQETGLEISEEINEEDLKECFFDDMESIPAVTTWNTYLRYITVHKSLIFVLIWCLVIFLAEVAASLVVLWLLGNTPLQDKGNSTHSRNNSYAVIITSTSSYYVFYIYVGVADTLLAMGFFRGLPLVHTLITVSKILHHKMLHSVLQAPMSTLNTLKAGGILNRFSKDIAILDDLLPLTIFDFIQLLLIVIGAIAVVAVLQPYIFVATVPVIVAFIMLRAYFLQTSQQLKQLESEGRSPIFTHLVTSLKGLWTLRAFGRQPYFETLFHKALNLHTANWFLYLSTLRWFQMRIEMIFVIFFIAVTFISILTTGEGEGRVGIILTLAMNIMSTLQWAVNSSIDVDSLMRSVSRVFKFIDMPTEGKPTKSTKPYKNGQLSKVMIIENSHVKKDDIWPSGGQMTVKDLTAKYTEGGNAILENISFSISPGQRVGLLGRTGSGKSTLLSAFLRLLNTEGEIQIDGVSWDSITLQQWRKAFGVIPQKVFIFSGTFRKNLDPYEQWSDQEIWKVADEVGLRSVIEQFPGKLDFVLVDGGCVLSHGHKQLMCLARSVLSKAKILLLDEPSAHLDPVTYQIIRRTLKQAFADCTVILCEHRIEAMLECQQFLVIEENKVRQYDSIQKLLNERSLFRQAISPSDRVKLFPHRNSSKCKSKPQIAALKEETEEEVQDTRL

A word on the EC50: it is the concentration giving half of the maximal effect. Read a low EC50 as an effect from little substance.

Where only a bound is given, the exact number is not on record here.

One assay deals with mutant CFTR (Homo sapiens, UniProt P13569, DEL508-508). Briefly: Fluorescence (HS-YFP) assay for CFTR activity, corrector assay. Type of assay: cell-based.
Assay [1] has as its target T1, F508del-CFTR (Homo sapiens, UniProt P13569, DEL508-508). Put plainly: Short-circuit current recordings on human bronchial epithelial cells (F508del/F508del). Type of assay: cell-based. Particulars: HBE cells from CF patients (F508del/F508del), 24 hrs treatment; table 3.
Assay [2] concerns the target T1, F508del-CFTR. Particulars: compounds tested at 5.0 μM, 24 hrs, FRT cells expressing F508del-CFTR; table 2.

As to `CN(C(=O)c1cccc(-n2nc(C(F)(F)F)c(C#N)c2OCc2ccc(C(=O)O)cc2)c1)c1ccc2c(c1)OC(F)(F)O2`, the EC50 on mutant CFTR is below 1000 nM.

For the compound `CCOc1c(Cl)c(C(F)(F)F)nn1-c1cccc(C(=O)N(C)c2ccc3c(c2)OCO3)c1`, at F508del-CFTR [1], the “activity on HBE cells (ΔICFTR)” value is “+ (ΔICFTR<2.0 μA)”. The “Corrector activity (ΔTEEC)” value at F508del-CFTR [2] is “+ (ΔTEEC<2000 μS)”. This compound also came in with an EC50 on mutant CFTR of 1000 to 2000 nM.

As for `Cc1nc2cc(F)c(N(C)C(=O)c3cccc(-n4nc(C(F)(F)F)cc4COc4ccc(C(=O)O)cc4)c3)cc2o1`, the EC50 on mutant CFTR is below 1000 nM.
